Only some compounds are listed: those with a hit (about 13% of all), similar ones and a draw of the others.
G9a inh: inhibitors of human histone lysine methyltransferase G9a; Q96KQ7; G9a H3K9 monomethylation, AlphaScreen, 2 h; Potency, µM (top dose mostly 102 µM), most hits filed as inhibitors; 350,000 tested, 8.8% active; note: nearly all actives have a fitted effect of over 75% in size
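Compounds were preincubated with 20 nM G9a for 15 min, after which biotinylated H3K9 peptide (500 nM) and SAM (20 uM) started a 2 h room-temperature reaction. Monomethylated product was quantified by antibody-based AlphaScreen chemiluminescence.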
LMNA splice mod: changes lamin A minigene splicing in HeLa cells | Potency, µM (highest dose often 46.1 µM), hits mostly inhibitors | AID 1487 | HeLa LMNA splicing GFP/RFP minigene ratio, 48 h | 200,000 tested, 0.01% active; active = well fitted inhibition curve with a large enough effect in the signal ratio, with a control signal flat, not every such curve was filed as active; inconclusive = small, poorly fitted or top-dose-only effect, or effect the other way, or a change in a side signal; the % refers to the signal ratio
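S3 HeLa cells stably expressing lamin A-EGFP splicing minigene plus DsRed2, 600 cells/well, 48 h compound exposure at 37C. Laser-scanning cytometry; analysed as GFP (500-530 nm)/RFP (575-640 nm) total intensity ratio; 0.5% DMSO vehicle.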
KDM4E inh: inhibitors of human JMJD2E histone demethylase | B2RXH2 | JMJD2E catalytic domain, FDH-coupled NADH fluorescence (FDH is formaldehyde dehydrogenase) | Potency, µM (titrated, usually from 57.1 µM), hits mostly inhibitors | 230,000 tested, 1.6% active | AID 2147; active = well fitted inhibition curve with a large enough effect, not every such curve was filed as active; inconclusive = small, poorly fitted or top-dose-only effect, or another doubt; inactive = no such curve, though single readings can be large or run the other way; note: nearly all actives have a fitted effect of over 50% in size
ALDH1A1 block: blocks purified human ALDH1A1 activity. P00352. Purified ALDH1A1, NADH fluorescence, propionaldehyde substrate. Potency, µM (titrated, usually from 75.3 µM), hits mostly inhibitors. 220,000 tested, 7.3% active; active = well fitted inhibition curve with a large enough effect, not every such curve was filed as active; inconclusive = small, poorly fitted or top-dose-only effect, or another doubt; inactive = no such curve, though single readings can be large or run the other way
Sfp inh: inhibitors of Bacillus subtilis Sfp phosphopantetheinyl transferase | Q9F4F7 | Biochemical Sfp PPTase activity, qHTS | Potency, µM, hits mostly inhibitors | 310,000 tested, 3.5% active | AID 1490;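 note: the enzyme is Sfp with the accession as filed and its product quenches rhodamine fluorescence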
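After 15 min at room temperature with compound, 15 nM Sfp received 5 uM rhodamine-CoA plus 12.5 uM BHQ-2-ybbR (50 mM Hepes pH 7.6, 10 mM MgCl2). Rate came from the fluorescence difference over 30 min, ex 525/em 598 nm.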
miR-21 reporter: miR-21 reporter, rising signal. 340,000 tested, under 10 active. Potency, µM (highest dose often 38.3 µM). HeLa miR-21 FLuc reporter, luciferase, 48 h. AID 2288; active = well fitted rising curve with a large enough effect; inconclusive = small, poorly fitted or top-dose-only effect; inactive = no such curve, though single readings can be large or run the other way;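 further: miR-21 action dims this reporter so a rising signal means less miR-21 action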
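HeLa miR-21-FLuc reporter line, endogenous miR-21; 2000 cells/well in DMEM/10% FBS; compound titration up to ~40uM final, 48 h, 37 degree Celsius; luciferase detection reagent, 15 min lysis, CCD luminescence.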
Hits are given with their value; n = inactive; u = inconclusive; x = no result; [ ] = another dose, or the depositor's remark. Unless noted, calls come from the whole dose curve; as a rule, active = well fitted curve in the direction sought with a large enough effect; inconclusive = small, poorly fitted or top-dose-only effect, or another doubt; inactive = no such curve, though single readings can be large; an effect the other way counts as inactive or inconclusive.

SMILES | G9a inh | LMNA splice mod | KDM4E inh | ALDH1A1 block | Sfp inh | miR-21 reporter
COc1ccc2nc3cc(Cl)ccc3c(Nc3cc(C(C)C)c(O)cc3C)c2c1 | n | x | u | x | 50µM | u
COc1ccc2nc(C)cc(Nc3ccccc3O)c2c1 | n | u | n | n | n | n
Cc1noc(C)c1C(=O)N1CCC2(CCN(Cc3nccs3)CC2)CC1 | n[12.7 µM] | x | x | n | n | x
Cc1n[nH]c(=O)c2c(NC(=O)CSc3nncs3)oc(C)c12 | n[0.501 µM] | x | x | x | x | x
O=c1[nH]c2ccc(S(=O)(=O)Nc3cc(Cl)ccc3O)cc2o1 | 3.2µM | x | x | x | x | n
CCc1ccc[n+](-c2[nH]c(=O)sc2/C=N/N=C(\[O-])c2ccncc2)c1 | 40µM | x | x | x | n | n
COc1ccc(Cc2nnc(NC(=O)c3ccccc3Cl)s2)cc1OC | n | x | x | x | n | n
COCCn1nnnc1C(CC(C)C)N1CCN(C(=O)c2ccco2)CC1 (stereo not drawn) | 40µM | n | n | n | n | n
COCCn1nnnc1C(c1ccc(Cl)cc1)N1CCSCC1 (stereo not drawn) | 50µM | n | n | u | n | n
COCCn1nnnc1C(c1ccc(Cl)cc1)N1CCN(C(=O)c2ccco2)CC1 (stereo not drawn) | 56µM | x | x | x | n | n
CCCC(c1nnnn1CCc1ccccc1)N1CCN(C(=O)c2ccco2)CC1 (stereo not drawn) | u | n | n | u | n | n
CCC(c1nnnn1CCOC)N1CCN(C(=O)c2ccco2)CC1 (stereo not drawn) | x | u | n | u | n | n
CCC(c1nnnn1Cc1ccccc1)N1CCN(C(=O)c2ccco2)CC1 (stereo not drawn) | 79µM | n | n | 6.3µM | n | n
COCCn1nnnc1C(c1ccc(OC)cc1)N1CCN(C(=O)c2ccco2)CC1 (stereo not drawn) | u | x | x | x | n | n
CCC(c1nnnn1Cc1ccco1)N1CCC(C(N)=O)CC1 (stereo not drawn) | n | n | n | u | n | n
CCCC(c1nnnn1Cc1ccco1)N1CCC(C(N)=O)CC1 (stereo not drawn) | u | n | n | 3.5µM | n | n
CCOC(=O)c1sc(NC(=O)CCC(=O)O)nc1C | n | x | n | n | n | n
CCOC(=O)c1sc(NCCNc2nc(C)c(C(=O)OCC)s2)nc1C | 50µM | n | n | n | n | n
Cc1ccc(S(=O)(=O)Nc2nc(C)c(C(=O)NN)s2)cc1 | x | x | n | x | n | n
CCOC(=O)c1sc(N)nc1C(C)(C)C | 16µM | n | n | u | n | n
CCOC(=O)c1sc(NS(=O)(=O)c2ccc(C)cc2)nc1C | 50µM | n | n | u | n | n
Cc1ccc(C(c2cccc(Br)c2)c2c(C)[nH]c3ccccc23)s1 (stereo not drawn) | n | x | x | x | x | n
Cc1sc(-c2cc3c([nH]c2=O)CC(c2ccccc2)CC3=O)nc1-c1ccc(Cl)cc1 (stereo not drawn) | n | x | x | x | x | n
CCOc1ccccc1Nc1sc(C(=O)c2ccc(Cl)cc2)c(N)c1C#N | n | u | x | x | x | n
COc1ccccc1CNc1cc(-c2ccccc2Cl)ncn1 | n[0.501 µM] | u | x | n | n | x
SMILES | G9a inh | LMNA splice mod | KDM4E inh | ALDH1A1 block | Sfp inh | miR-21 reporter
O=C(CSc1nc2ccccc2n1Cc1c(F)cccc1Cl)N1CCN(c2ccc(F)cc2)CC1 | n | x | x | x | x | n
COc1ccc(S(=O)(=O)/N=C2\C=C(Nc3ccc(O)cc3)C(=O)c3ccccc32)cc1 | 8.9µM | x | x | x | n | u
Cc1ccccc1NC1=C/C(=N\S(=O)(=O)c2cccs2)c2ccccc2C1=O | 3.2µM | u | n | u | n | u
Cc1ccc(NC2=C/C(=N/S(=O)(=O)c3cccs3)c3ccccc3C2=O)cc1C | n | n | n | n | n | n
CC(=O)Nc1ccc(NC2=C/C(=N/S(=O)(=O)c3cccs3)c3ccccc3C2=O)cc1 | 45µM | x | n | n | n | u
O=C(NCc1ccc(F)cc1)c1cccnc1C(=O)O | n | x | x | x | n | n
COc1ccc(S(=O)(=O)NCCc2c(C)nn(C)c2Oc2ccccc2)cc1 | n[12.7 µM] | u | n | 0.63µM | n | n
c1ccc(N2CCN(Cc3nnnn3C3CCCCC3)CC2)cc1 | n | n | n | 28µM | n | n
C1CCC(n2nnnc2CN2CCN(C3CCCC3)CC2)CC1 | u | n | n | n | n | n
Cc1ccccc1C(=O)NC1CCN(Cc2nnnn2C2CCCC2)CC1 | n | n | n | n | n | n
O=C(Nc1ccccc1)NC1CCN(Cc2nnnn2C2CCCCC2)CC1 | n | n | n | 14µM | n | n
CCc1ccc(NC(=O)C(CC)n2nnc(C(=O)OC)c2C(=O)OC)cc1 (stereo not drawn) | n | x | x | x | x | n
Cc1cc(Cl)ccc1NC(=O)CCC(=O)O | n | n | n | n | n | n
Cc1ccc(NC(=O)CCl)c(C)c1 | u | x | n | 0.28µM | n | u
CCCOc1ccc(NCC(=O)Nc2ccc(C)cc2C)cc1 | 8.9µM | n | n | 2.2µM | n | n
COc1ccc(NCC(=O)Nc2ccc(Cl)cc2C)c(OC)c1 | 1.4µM | n | u | 4.5µM | n | n
CCOc1ccc(NCC(=O)Nc2ccc(Cl)cc2C)cc1 | 8.9µM | n | n | 3.5µM | n | n
CCCOc1ccc(NC(=O)c2cc3cc(C)ccc3[nH]2)cc1 | x | x | x | x | n | n
CC(NC(=O)c1cccnc1Sc1ccccc1)c1ccc(S(N)(=O)=O)cc1 (stereo not drawn) | n | x | x | x | n | n
Cc1ccc(OCC(=O)Nc2ccc3nc(SCC(N)=O)sc3c2)cc1 | n | n | x | x | x | n
Cc1noc(C(F)(F)F)c1C(=O)NNC(=O)c1cccc(C(F)(F)F)c1 | x | x | n | x | n | n
Cc1sc(N)c(C(=O)c2cccc(C(F)(F)F)c2)c1C | x | x | n | u | 79µM | x
COc1ccc(C)cc1NC(=O)C(=O)NCC(c1cccnc1)N1CCN(c2ccccc2F)CC1 (stereo not drawn) | n | n | x | x | x | n
Cc1ccc(C2C(C#N)=C(N)Oc3cc4c(cc32)OCO4)cc1 (stereo not drawn) | u | u | u | u | n | n
N#CC1=C(N)OC(c2ccccc2)=C(C#N)C1c1ccc2c(c1)OCO2 (stereo not drawn) | u | n | n | 1µM | n | n
SMILES | G9a inh | LMNA splice mod | KDM4E inh | ALDH1A1 block | Sfp inh | miR-21 reporter
CC(C)CC1C(C#N)=C(N)OC2=C1C(=O)CC(c1ccccc1)C2 (stereo not drawn) | n | n[9.22 µM] | n | u | n | n
N#CC1=C(N)OC2=C(C(=O)CC(c3ccccc3)C2)C1c1ccc2c(c1)OCO2 (stereo not drawn) | u | u | n | 11µM | n | n
COCC(C)NC(=O)Cn1c(SCc2ccccc2)nc2ccccc21 (stereo not drawn) | 45µM | x | x | x | n | n
COc1ccccc1OCCSc1nc2ccccc2n1CCC(=O)O | x | x | x | x | n | n
COc1ccccc1OCCn1c(SCC(=O)O)nc2ccccc21 | 40µM | x | x | x | n | n
COCCn1c(SCC(=O)NC(=O)NC(C)C)nc2ccccc21 | n | n | n | n | n | n

Screens from PubChem BioAssay.
